One molecule from patent US20220409585A1, “TREATMENT OF AUTOINFLAMMATORY DISORDERS” (Inflazome Limited, priority 2019, published 2022) can be followed below.

The series has as its system CAPS patient (NLRP3 mutation Arg260Trp). The experiment in a line: Treatment of a CAPS patient (humans in vivo). Also noted: species or system human. The note with it: oral, twice daily, 3.3 mg/kg/dose for 7 days, one CAPS patient.

Structures are written as SMILES.

Regarding `CC(C)n1ccc(S(=O)(=O)NC(=O)Nc2c3c(cc4c2CCC4)CCC3)n1` [compound of formula (I)], the tolerability of treatment result is “well tolerated”.
